Read-outs that look alike come from different tables or passages of the source.
Legend:
[1] = all animals that survived past the first day
[2] = pH 7.4
[3] = Aquation in D2O by 1H NMR; details: 37° C.

| Substance | change in body weight, in words [1] | mortality (Albino ICR mice; Phase 2, 4, 2.9, 2.1 and 1.5 mg/kg IV, three animals dosed each) | mortality (Albino ICR mice; Phase 2, Group 6, 5.6 mg/kg IV, three animals dosed) | mortality (Albino ICR mice; Phase 2, Group 7, 7.8 mg/kg IV, three animals dosed) | mortality (Albino ICR mice; Phase 2, Group 8, 10.8 mg/kg IV) | maximum tolerated dose (MTD) (Albino ICR mice; intravenous (tail vein), Albino ICR female mice) | half-life, reaction with 5′-dGMP [2] | equilibrium constant for aquation [3] |
| --- | --- | --- | --- | --- | --- | --- | --- | --- |
| cis-[Pt(NH3)2(phenanthridine)Cl]NO3 [phenanthriplatin] | no significant change in body weight | no mortality was observed | One animal died within a few minutes after dosing | Two animals died within a few minutes after dosing | one animal died immediately after dosing | approximately 4 mg/kg | 3.2 h | approximately 0.05 |
| pyriplatin |  |  |  |  |  |  |  | approximately 0.05 |

Source: US20130029959A1, “COMPOSITIONS AND METHODS FOR THE TREATMENT OF CANCER” (Massachusetts Institute of Technology, priority 2011, published 2013)
